Earlier results as cited in patent US10562850B2, “Human plasma kallikrein inhibitors” (priority 2015, dated 2020).

System: lipopolysaccharide (LPS)- or bacterial-induced sepsis in animals
Settings: cited from earlier work

H-D-Pro-Phe-Arg-chloromethylketone [H-D-Pro-Phe-Arg-chloromethylketone (CMK)]
vascular permeability in multiple organs and lesions: reduce vascular permeability in multiple organs and reduce lesions
